Measurements published in publication PMC4896453.

Biological target: human Kappa (κ) opioid receptor (human), P41145
Assay: radioligand binding; displacement of ~0.8 nM [3H]-DPN from CHOhMu, CHOhDelta or CHOhKappa membranes (40 μg protein) in 0.5 ml 50 mM Tris, 0.5% BSA; displacing ligand 10 μM-1 pM; non-specific binding with 10 μM naloxone; 1 hr at room temperature; filtration; 50% displacement corrected for the radioligand to give pKi

B1: Dynorphin-A (peptide)
chain: YGGFLRRIRPKLKWDNQ
modifications: not checked
B1 showed a pKi of 10.2.
